Results on 4 compounds are retold here after publication PMC4507497 (Chemistry & biology, 2015).

Amino acid sequences for entries named in this document (tags omitted). A change or cut given only in a name is not applied to a line headed by its entry.
UniProt P41145: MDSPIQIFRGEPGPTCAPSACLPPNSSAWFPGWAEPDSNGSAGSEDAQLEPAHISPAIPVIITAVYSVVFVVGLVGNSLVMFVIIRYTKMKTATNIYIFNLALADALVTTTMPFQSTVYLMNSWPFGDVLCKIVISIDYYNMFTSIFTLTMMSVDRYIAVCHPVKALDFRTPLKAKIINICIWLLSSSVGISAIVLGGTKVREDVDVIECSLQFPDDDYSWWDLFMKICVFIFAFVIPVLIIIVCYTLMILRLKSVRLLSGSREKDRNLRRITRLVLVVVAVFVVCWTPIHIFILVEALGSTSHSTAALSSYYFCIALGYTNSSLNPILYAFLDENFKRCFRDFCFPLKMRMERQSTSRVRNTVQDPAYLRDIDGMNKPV
UniProt P35372, whole entry: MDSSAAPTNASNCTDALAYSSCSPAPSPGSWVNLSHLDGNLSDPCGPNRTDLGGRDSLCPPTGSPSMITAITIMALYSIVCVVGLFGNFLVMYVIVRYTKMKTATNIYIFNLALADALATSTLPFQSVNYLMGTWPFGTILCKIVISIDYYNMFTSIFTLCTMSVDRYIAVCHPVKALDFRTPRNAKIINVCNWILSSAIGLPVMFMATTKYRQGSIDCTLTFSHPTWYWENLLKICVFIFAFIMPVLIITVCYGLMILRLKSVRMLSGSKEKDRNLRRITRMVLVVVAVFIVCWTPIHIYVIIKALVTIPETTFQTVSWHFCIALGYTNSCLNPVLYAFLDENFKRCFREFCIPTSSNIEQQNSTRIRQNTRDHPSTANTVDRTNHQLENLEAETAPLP
UniProt P41143, whole entry: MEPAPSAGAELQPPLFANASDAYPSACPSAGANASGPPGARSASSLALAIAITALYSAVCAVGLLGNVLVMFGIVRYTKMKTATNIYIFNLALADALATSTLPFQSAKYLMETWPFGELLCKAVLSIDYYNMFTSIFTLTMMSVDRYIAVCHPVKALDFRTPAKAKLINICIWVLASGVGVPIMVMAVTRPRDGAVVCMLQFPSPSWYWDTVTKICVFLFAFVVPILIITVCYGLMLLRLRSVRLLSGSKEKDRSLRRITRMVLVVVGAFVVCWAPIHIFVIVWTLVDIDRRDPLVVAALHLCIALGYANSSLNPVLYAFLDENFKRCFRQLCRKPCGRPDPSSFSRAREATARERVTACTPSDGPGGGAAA

One experiment deals with Human KOR (Homo sapiens, UniProt P41145). Briefly: cell-based.
Another experiment has as its target Human MOR (hMOR) (Homo sapiens, UniProt P35372). The experiment in a line: cell-based.
The next experiment deals with hMOR (Homo sapiens, UniProt P35372). Briefly: Competition binding with radiolabeled diprenorphine, hMOR.
In the next experiment the target is h-rpMOR-wt. The experiment in a line: Competition binding with radiolabeled diprenorphine, h-rpMOR-wt. The following applies: Table 3, [3H]-diprenorphine competition. The arrangement: species or system human / Rana pipiens.
The target of a further experiment is h-rpMOR-E3h. Briefly: Competition binding with radiolabeled diprenorphine, h-rpMOR-E3h. Also noted: species or system human / Rana pipiens. The following applies: Table 3, [3H]-diprenorphine competition.
The target of a further experiment is Human DOR (Homo sapiens, UniProt P41143). Briefly: cell-based.

One may read the EC50 as the midpoint of the concentration-response curve. Low readings indicate higher potency in that assay, high ones lower potency in that assay. One may read the Ki as the dissociation constant of the complex between target and ligand, obtained from inhibition or displacement. High values mean weaker binding, low ones tighter binding.

Structures are written as SMILES. Where “and” joins values, the source holds several entries; their conditions need not be identical. Equal values may be shown once.

Turning to `CC(C)C[C@@H](NC(=O)[C@H](Cc1ccccc1)NC(=O)CNC(=O)[C@@H](C)NC(=O)[C@@H](N)Cc1ccc(O)cc1)C(=O)O` [DADLE, [D-Ala^2,D-Leu^5]-enkephalin], the EC50 is 3.1 µM on Human KOR (EC50), 3.16 µM at Human KOR (log EC50 ±SEM), 0.014 µM at Human MOR (hMOR) (EC50) and 0.0138 µM on Human MOR (hMOR) (log EC50 ±SEM).
Take `C[C@@H](NC(=O)[C@@H](N)Cc1ccc(O)cc1)C(=O)N[C@@H](Cc1ccccc1)C(=O)NCC(=O)N[C@@H](Cc1ccc(O)cc1)C(=O)N1CCC[C@H]1C(=O)N[C@@H](CO)C(N)=O` [Dermorphin]: the EC50 was 0.0065 µM and 0.0059 µM on Human MOR (hMOR) (EC50); 0.00631 µM at Human MOR (hMOR) (log EC50 ±SEM). Further, the Ki turned out to be 0.05 µM on hMOR, 1.23 µM at h-rpMOR-wt and 1.41 µM on h-rpMOR-E3h.
`CC(C)[C@H](NC(=O)[C@H](CC(=O)O)NC(=O)[C@H](Cc1ccccc1)NC(=O)[C@@H](C)NC(=O)[C@@H](N)Cc1ccc(O)cc1)C(=O)N[C@H](C(=O)NCC(N)=O)C(C)C` [Deltorphin C, Tyr-D-Ala-Phe-Asp-Val-Val-Gly-NH2]: the EC50 was 0.62 µM at Human MOR (hMOR) (EC50), 0.631 µM on Human MOR (hMOR) (log EC50 ±SEM), 0.0004 µM at Human DOR (EC50) and 0.000437 µM on Human DOR (log EC50 ±SEM).
Consider `CC(C)C[C@H](NC(=O)[C@H](Cc1ccccc1)NC(=O)CNC(=O)CNC(=O)[C@@H](N)Cc1ccc(O)cc1)C(=O)N[C@@H](CCCN=C(N)N)C(=O)N[C@@H](CCCN=C(N)N)C(=O)N[C@@H](CCC(N)=O)C(=O)N[C@@H](Cc1ccccc1)C(=O)N[C@@H](CCCCN)C(=O)N[C@H](C(=O)N[C@H](C(=O)N[C@H](C(=O)O)[C@@H](C)O)C(C)C)C(C)C` [Dynorphin B], for which the EC50 at Human KOR (EC50) was 0.025 µM; at Human KOR (log EC50 ±SEM), 0.0251 µM; on Human MOR (hMOR) (EC50) it was 0.9 µM; on Human MOR (hMOR) (log EC50 ±SEM) it was 0.794 µM.
